Experiment: Comparative toxicity study (LD0, LD50) and therapeutic index
Details: mouse, in vivo
Excerpt: In the study of the cytostatic action, 6-mercaptopurine was taken as the comparative anti-neoplastic drug.

SMILES | selectivity ratio
O=C1c2cccc3cc([N+](=O)[O-])cc(c23)C(=O)N1CCN1CCCCC1 [Compound 1, N-[2-(N-piperidino)ethyl]-3-nitronaphthalimide] | 1
CCN(CC)CCN1C(=O)c2cccc3cc([N+](=O)[O-])cc(c23)C1=O [Compound 2, N-(2-diethylaminoethyl)-3-nitronaphthalimide] | 0.66
